Legend:
ptc>dRet^M955T flies = test: Fly rescue assay (Drosophila MTC model ptc>dRet^M955T); format: in vivo; details: compound in fly food
Protocol: Kinase-mutated fly stocks were obtained from Bloomington Drosophila Stock Center (BDSC; Bloomington, IN). The active mutant form of Drosophila Ret (dRet^955T) carries an M955T mutation corresponding to the M918T mutation commonly reported for multiple endocrine neoplasia (MEN) type 2B patients12,14,16,34. The ptc-gal4, UAS-GFP;UAS-dRet^M955T/SM5tub-gal80-TM6B transgenic flies were prepared according to standard protocols and crossed with non-transgenic w-flies (BDSC) to generate ptc-gal4, UAS-GFP; UAS-dRet^M955T(ptc>dRet^M955T) flies for chemical screening.
All drugs were synthesized in-house. All compounds were dissolved in DMSO (Sigma-Aldrich; St. Louis, MO) and mixed with semi-defined fly medium (BDSC) to make drug food (0.1% final DMSO concentration). For drug screening, ptc>dRet^M955T embryos were raised until adulthood on drug food for 13 d at 25° C. The number of empty pupal cases (i.e., adults) ? that of total pupal cases (P) to determine % viability. Fly randomization was used throughout the assays.
The initial libraries of perfluoroalkyl-analogs of sorafenib and regorafenib were screened in the Drosophila MTC model ptc>Ret^M955T (FIG. 4). In this model, compounds are assessed based on their ability to suppress oncogenic Ret^M955T-induced tumors, which can be quantified as ‘rescue’ from lethality. […]

Amino acid sequences for entries named in this document (tags omitted). Residues count along the entry.
UniProt P07949, 724-1016 limits assumed: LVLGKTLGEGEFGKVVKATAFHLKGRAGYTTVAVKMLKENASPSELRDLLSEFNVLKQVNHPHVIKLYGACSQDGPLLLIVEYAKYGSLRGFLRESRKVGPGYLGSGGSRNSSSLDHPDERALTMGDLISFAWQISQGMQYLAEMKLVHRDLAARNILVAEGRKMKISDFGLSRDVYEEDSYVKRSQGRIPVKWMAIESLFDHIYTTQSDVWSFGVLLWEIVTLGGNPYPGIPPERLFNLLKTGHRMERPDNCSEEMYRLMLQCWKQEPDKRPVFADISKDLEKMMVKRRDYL

[1] = molecular target: wild-type RET kinase domain (Homo sapiens, UniProt P07949); test: Wild-type RET Kd, bead based competition assay (KINOMEscan, DiscoverX); details: read-out: Kd towards wild-type RET; recombinant human wild-type RET kinase domain, average of two replicates
MDCK = MDCK permeability assay; details: 5 μM
Caco-2 = Caco-2 permeability assay; details: 5 μM
[2] = 1 hour at 37° C., HBSS pH 7.4 both sides

| Kd [1] [nM] | influx/efflux ratio in MDCK (MDCK; [2]) | rates of influx and efflux in MDCK, in words (MDCK; compared to APS-8-100-2 (40)) | influx/efflux ratio in Caco-2 (Caco-2; [2]) | rates of influx and efflux in Caco-2, in words (Caco-2; compared to APS-8-100-2 (40)) | Compound | rescue activity in the fly model, in words (ptc>dRet^M955T flies) | rescue activity in the fly model, in words (ptc>dRet^M955T flies; listed as 36) |
| --- | --- | --- | --- | --- | --- | --- | --- |
| 25 | – | – | – | – | CNC(=O)c1cc(Oc2ccc(NC(=O)Nc3ccc(C(F)(F)C(F)(F)C(F)(F)F)cc3)c(F)c2)ccn1 | – | – |
| 1 | < 1 | much faster rates of influx and efflux | < 1 | much faster rates of influx and efflux | CCc1ccc(NC(=O)Nc2ccc(Oc3ccnc(C(=O)NC)c3)cc2F)cc1 | – | – |

| Compound | Kd [1] [nM] | influx/efflux ratio in MDCK (MDCK; [2]) | rates of influx and efflux in MDCK, in words (MDCK; compared to APS-8-100-2 (40)) | influx/efflux ratio in Caco-2 (Caco-2; [2]) | rates of influx and efflux in Caco-2, in words (Caco-2; compared to APS-8-100-2 (40)) | rescue activity in the fly model, in words (ptc>dRet^M955T flies) | rescue activity in the fly model, in words (ptc>dRet^M955T flies; listed as 36) |
| --- | --- | --- | --- | --- | --- | --- | --- |
| CNC(=O)c1cc(Oc2ccc(NC(=O)Nc3ccc(C(F)(C(F)(F)F)C(F)(F)F)cc3)c(F)c2)ccn1 | 27 | – | – | – | – | exceptional in vivo activity | surpassed the activity of previously described analog APS-6-45 (3) |

Source: patent publication US20240287081A1, “PERFLUOROALKANE SUBSTITUTED PYRAZOLO[3,4-D]PYRIMIDIN AND PYRROLO[2,3-D]PYRIMIDIN COMPOUNDS AND USES THEREOF” (ICAHN SCHOOL OF MEDICINE AT MOUNT SINAI, priority 2021, published 2024)
